Experimental data taken from PubChem BioAssay (NCI).
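96-well plates; 48 h exposure; 5 concentrations. Endpoints by linear interpolation between flanking doses. Not reached: highest tested concentration assigned. GI50 is the concentration that inhibits growth by half. TGI is the concentration that stops growth completely.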

Tests used:
Assay in all cases: NCI tumour cell line growth inhibition, 48 h
SN12C renal = test system: SN12C renal
HCC-2998 colon = test system: HCC-2998 colon
OVCAR-8 ovarian = test system: OVCAR-8 ovarian
LXFL 529 NSCLC = test system: LXFL 529 NSCLC
OVCAR-5 ovarian = test system: OVCAR-5 ovarian
A498 renal = test system: A498 renal
NCI-H226 lung = test system: NCI-H226 lung
KM12 colon = test system: KM12 colon
UO-31 renal = test system: UO-31 renal
M19-MEL melanoma = test system: M19-MEL melanoma
SNB-75 CNS = test system: SNB-75 CNS
OVCAR-3 ovarian = test system: OVCAR-3 ovarian
HCT-116 colon = test system: HCT-116 colon
SNB-19 CNS = test system: SNB-19 CNS
SK-MEL-5 melanoma = test system: SK-MEL-5 melanoma
NCI-H322M lung = test system: NCI-H322M lung
A549 NSCLC = test system: A549 NSCLC
CCRF-CEM leukemia = test system: CCRF-CEM leukemia
M14 melanoma = test system: M14 melanoma
SF-268 CNS = test system: SF-268 CNS
SK-MEL-2 melanoma = test system: SK-MEL-2 melanoma
SK-MEL-28 melanoma = test system: SK-MEL-28 melanoma
UACC-62 melanoma = test system: UACC-62 melanoma
TK-10 renal = test system: TK-10 renal
EKVX NSCLC = test system: EKVX NSCLC
RXF 393 renal = test system: RXF 393 renal
IGROV1 ovarian = test system: IGROV1 ovarian
DMS 273 small cell lung = test system: DMS 273 small cell lung
786-0 renal = test system: 786-0 renal
U251 CNS = test system: U251 CNS
RPMI-8226 leukemia = test system: RPMI-8226 leukemia
LOX IMVI melanoma = test system: LOX IMVI melanoma
KM20L2 colon = test system: KM20L2 colon
CAKI-1 renal = test system: CAKI-1 renal
SR leukemia = test system: SR leukemia
DMS 114 small cell lung = test system: DMS 114 small cell lung
K-562 leukemia = test system: K-562 leukemia
HL-60(TB) leukemia = test system: HL-60(TB) leukemia
SK-OV-3 ovarian = test system: SK-OV-3 ovarian
MOLT-4 leukemia = test system: MOLT-4 leukemia
SF-295 CNS = test system: SF-295 CNS
XF 498 CNS = test system: XF 498 CNS
NCI-H522 lung = test system: NCI-H522 lung
HOP-62 NSCLC = test system: HOP-62 NSCLC
COLO 205 colon = test system: COLO 205 colon
NCI-H23 lung = test system: NCI-H23 lung
NCI-H460 lung = test system: NCI-H460 lung
OVCAR-4 ovarian = test system: OVCAR-4 ovarian
HT29 colon = test system: HT29 colon
SF-539 CNS = test system: SF-539 CNS
MALME-3M melanoma = test system: MALME-3M melanoma
UACC-257 melanoma = test system: UACC-257 melanoma
HCT-15 colon = test system: HCT-15 colon
DLD-1 colon = test system: DLD-1 colon
ACHN renal = test system: ACHN renal
HOP-18 NSCLC = test system: HOP-18 NSCLC

CCOP(=O)(OCC)OP1OCC(C)(C)CO1
GI50 (SN12C renal): > 100 µM | TGI (SN12C renal): > 100 µM | GI50 (HCC-2998 colon): > 100 µM | TGI (HCC-2998 colon): > 100 µM | GI50 (OVCAR-8 ovarian): > 100 µM | TGI (OVCAR-8 ovarian): > 100 µM | GI50 (LXFL 529 NSCLC): > 100 µM | TGI (LXFL 529 NSCLC): > 100 µM | GI50 (OVCAR-5 ovarian): > 100 µM | TGI (OVCAR-5 ovarian): > 100 µM | GI50 (A498 renal): > 100 µM | TGI (A498 renal): > 100 µM | GI50 (NCI-H226 lung): > 100 µM | TGI (NCI-H226 lung): > 100 µM | GI50 (KM12 colon): > 100 µM | TGI (KM12 colon): > 100 µM | GI50 (UO-31 renal): > 100 µM | TGI (UO-31 renal): > 100 µM | GI50 (M19-MEL melanoma): > 100 µM | TGI (M19-MEL melanoma): > 100 µM | GI50 (SNB-75 CNS): > 100 µM | TGI (SNB-75 CNS): > 100 µM | GI50 (OVCAR-3 ovarian): > 100 µM | TGI (OVCAR-3 ovarian): > 100 µM | GI50 (HCT-116 colon): 20.5 µM | TGI (HCT-116 colon): 58.3 µM | GI50 (SNB-19 CNS): > 100 µM | TGI (SNB-19 CNS): > 100 µM | GI50 (SK-MEL-5 melanoma): > 100 µM | TGI (SK-MEL-5 melanoma): > 100 µM | GI50 (NCI-H322M lung): > 100 µM | TGI (NCI-H322M lung): > 100 µM | GI50 (A549 NSCLC): > 100 µM | TGI (A549 NSCLC): > 100 µM | GI50 (CCRF-CEM leukemia): 42.2 µM | TGI (CCRF-CEM leukemia): > 100 µM | GI50 (M14 melanoma): > 100 µM | TGI (M14 melanoma): > 100 µM | GI50 (SF-268 CNS): 39 µM | TGI (SF-268 CNS): > 100 µM | GI50 (SK-MEL-2 melanoma): > 100 µM | TGI (SK-MEL-2 melanoma): > 100 µM | GI50 (SK-MEL-28 melanoma): > 100 µM | TGI (SK-MEL-28 melanoma): > 100 µM | GI50 (UACC-62 melanoma): > 100 µM | TGI (UACC-62 melanoma): > 100 µM | GI50 (TK-10 renal): > 100 µM | TGI (TK-10 renal): > 100 µM | GI50 (EKVX NSCLC): > 100 µM | TGI (EKVX NSCLC): > 100 µM | GI50 (RXF 393 renal): > 100 µM | TGI (RXF 393 renal): > 100 µM | GI50 (IGROV1 ovarian): > 100 µM | TGI (IGROV1 ovarian): > 100 µM | GI50 (DMS 273 small cell lung): 46.3 µM | TGI (DMS 273 small cell lung): > 100 µM | GI50 (786-0 renal): 79.1 µM | TGI (786-0 renal): > 100 µM | GI50 (U251 CNS): > 100 µM | TGI (U251 CNS): > 100 µM | GI50 (RPMI-8226 leukemia): 25.9 µM | TGI (RPMI-8226 leukemia): 51.2 µM | GI50 (LOX IMVI melanoma): 20.1 µM | TGI (LOX IMVI melanoma): 36.7 µM | GI50 (KM20L2 colon): 47.5 µM | TGI (KM20L2 colon): > 100 µM | GI50 (CAKI-1 renal): > 100 µM | TGI (CAKI-1 renal): > 100 µM | GI50 (SR leukemia): 26.5 µM | TGI (SR leukemia): 51.3 µM | GI50 (DMS 114 small cell lung): 16 µM | TGI (DMS 114 small cell lung): 29.9 µM | GI50 (K-562 leukemia): > 100 µM | TGI (K-562 leukemia): > 100 µM | GI50 (HL-60(TB) leukemia): > 100 µM | TGI (HL-60(TB) leukemia): > 100 µM | GI50 (SK-OV-3 ovarian): > 100 µM | TGI (SK-OV-3 ovarian): > 100 µM | GI50 (MOLT-4 leukemia): > 100 µM | TGI (MOLT-4 leukemia): > 100 µM | GI50 (SF-295 CNS): > 100 µM | TGI (SF-295 CNS): > 100 µM | GI50 (XF 498 CNS): > 100 µM | TGI (XF 498 CNS): > 100 µM | GI50 (NCI-H522 lung): > 100 µM | TGI (NCI-H522 lung): > 100 µM | GI50 (HOP-62 NSCLC): > 100 µM | TGI (HOP-62 NSCLC): > 100 µM | GI50 (COLO 205 colon): 30.7 µM | TGI (COLO 205 colon): > 100 µM | GI50 (NCI-H23 lung): > 100 µM | TGI (NCI-H23 lung): > 100 µM | GI50 (NCI-H460 lung): 34.6 µM | TGI (NCI-H460 lung): > 100 µM | GI50 (OVCAR-4 ovarian): > 100 µM | TGI (OVCAR-4 ovarian): > 100 µM | GI50 (HT29 colon): 56.7 µM | TGI (HT29 colon): > 100 µM | GI50 (SF-539 CNS): > 100 µM | TGI (SF-539 CNS): > 100 µM | GI50 (MALME-3M melanoma): > 100 µM | TGI (MALME-3M melanoma): > 100 µM | GI50 (UACC-257 melanoma): > 100 µM | TGI (UACC-257 melanoma): > 100 µM | GI50 (HCT-15 colon): > 100 µM | TGI (HCT-15 colon): > 100 µM | GI50 (DLD-1 colon): 23.2 µM | TGI (DLD-1 colon): 54.7 µM | GI50 (ACHN renal): > 100 µM | TGI (ACHN renal): > 100 µM | GI50 (HOP-18 NSCLC): > 100 µM | TGI (HOP-18 NSCLC): > 100 µM
